Values of other authors as cited in patent publication US5856318A (priority 1997, dated 1999).

Tested on: kappa opioid receptors
Conditions: cited from earlier work

Q: Which “kappa opioid receptor ligand activity” value does the source give for CN(C(=O)Cc1ccc(Cl)c(Cl)c1)[C@@H]1CCCC[C@H]1N1CCCC1 (relative stereo) here?
A: highly selective ligands for kappa opioid receptors
